# According to patent publication US11618753B2 (priority 2018, dated 2023):
# Amino acid sequences for entries named in this document (tags omitted). A change or cut given only in a name is not applied to a line headed by its entry.
# UniProt O00329: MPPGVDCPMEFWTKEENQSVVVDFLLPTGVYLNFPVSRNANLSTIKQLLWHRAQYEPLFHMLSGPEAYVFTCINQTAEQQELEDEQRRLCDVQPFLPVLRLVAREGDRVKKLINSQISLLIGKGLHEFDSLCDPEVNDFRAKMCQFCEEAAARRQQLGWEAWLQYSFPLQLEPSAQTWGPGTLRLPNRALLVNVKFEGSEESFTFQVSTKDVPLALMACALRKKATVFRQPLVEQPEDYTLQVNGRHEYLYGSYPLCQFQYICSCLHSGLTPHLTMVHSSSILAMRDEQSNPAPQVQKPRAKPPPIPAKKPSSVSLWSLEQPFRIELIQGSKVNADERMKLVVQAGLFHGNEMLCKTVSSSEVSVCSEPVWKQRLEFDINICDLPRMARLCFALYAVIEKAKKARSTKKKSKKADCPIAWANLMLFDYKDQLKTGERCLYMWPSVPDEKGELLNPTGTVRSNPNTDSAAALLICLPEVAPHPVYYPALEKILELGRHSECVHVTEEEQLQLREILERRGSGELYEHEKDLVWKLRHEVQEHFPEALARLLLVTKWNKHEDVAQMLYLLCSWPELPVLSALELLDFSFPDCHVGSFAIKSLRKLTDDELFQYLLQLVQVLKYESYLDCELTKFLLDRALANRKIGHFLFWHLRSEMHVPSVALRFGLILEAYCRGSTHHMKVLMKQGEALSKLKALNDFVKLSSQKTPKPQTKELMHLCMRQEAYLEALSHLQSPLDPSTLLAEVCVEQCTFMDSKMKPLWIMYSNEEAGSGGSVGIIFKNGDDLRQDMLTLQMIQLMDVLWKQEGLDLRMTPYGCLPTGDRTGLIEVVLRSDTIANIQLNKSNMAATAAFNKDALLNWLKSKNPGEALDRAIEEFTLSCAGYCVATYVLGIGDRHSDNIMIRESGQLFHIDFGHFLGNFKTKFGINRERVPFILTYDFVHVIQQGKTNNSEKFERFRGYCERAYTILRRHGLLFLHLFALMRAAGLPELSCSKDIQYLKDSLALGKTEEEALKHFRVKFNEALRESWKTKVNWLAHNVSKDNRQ
# Biological target: GST-tagged PIK3Cδ in complex with PIK3R1 (Homo sapiens (Human), UniProt O00329)
# Assay: biochemical
row,SMILES,IC50
1,"COc1ncc(-c2cc(CN3CCC(F)(F)CC3)c3c(N)ncnn23)cc1C(=O)N[C@@H]1CN(C(=O)c2cc(F)ccc2F)C[C@@H]1F [Example 1241, 5-{4-amino-5-[(4,4-difluoropiperidin-1-yl)methyl]pyrrolo[2,1-f][1,2,4]triazin-7-yl}-N-[(3R,4S)-1-(2,5-difluorobenzoyl)-4-fluoropyrrolidin-3-yl]-2-methoxypyridine-3-carboxamide]",> 15 µM
2,"COc1ncc(-c2cc(CN3CCC(F)(F)CC3)c3c(N)ncnn23)cc1C(=O)N[C@@H]1CN(C(=O)c2c(F)cccc2F)C[C@@H]1F [Example 1242, 5-{4-amino-5-[(4,4-difluoropiperidin-1-yl)methyl]pyrrolo[2,1-f][1,2,4]triazin-7-yl}-N-[(3R,4S)-1-(2,6-difluorobenzoyl)-4-fluoropyrrolidin-3-yl]-2-methoxypyridine-3-carboxamide]",> 15 µM
3,"COc1ncc(-c2cc(CN3CCC(F)(F)CC3)c3c(N)ncnn23)cc1C(=O)N[C@@H]1CN(C(=O)c2c(F)cncc2F)C[C@@H]1F [Example 1243, 5-{4-amino-5-[(4,4-difluoropiperidin-1-yl)methyl]pyrrolo[2,1-f][1,2,4]triazin-7-yl}-N-[(3R,4S)-1-(3,5-difluoropyridine-4-carbonyl)-4-fluoropyrrolidin-3-yl]-2-methoxypyridine-3-carboxamide]",> 15 µM
4,"COc1ncc(-c2cc(CN3CCC(F)(F)CC3)c3c(N)ncnn23)cc1C(=O)N[C@@H]1CN(C(=O)c2ncccc2Cl)C[C@@H]1F [Example 1244, 5-{4-amino-5-[(4,4-difluoropiperidin-1-yl)methyl]pyrrolo[2,1-f][1,2,4]triazin-7-yl}-N-[(3R,4S)-1-(3-chloropyridine-2-carbonyl)-4-fluoropyrrolidin-3-yl]-2-methoxypyridine-3-carboxamide]",> 15 µM
5,"COc1ncc(-c2cc(CN3CCC(F)(F)CC3)c3c(N)ncnn23)cc1C(=O)N[C@@H]1CN(C(=O)C2(F)CC2)C[C@@H]1F [Example 1245, 5-{4-amino-5-[(4,4-difluoropiperidin-1-yl)methyl]pyrrolo[2,1-f][1,2,4]triazin-7-yl}-N-[(3R,4S)-4-fluoro-1-(1-fluorocyclopropanecarbonyl)pyrrolidin-3-yl]-2-methoxypyridine-3-carboxamide]",> 15 µM
6,"COc1ncc(-c2cc(CN3CCC(F)(F)CC3)c3c(N)ncnn23)cc1C(=O)N[C@@H]1CN(C(=O)CC(C)(O)C(F)(F)F)C[C@@H]1F (stereo partly drawn) [Example 1246, 5-{4-amino-5-[(4,4-difluoropiperidin-1-yl)methyl]pyrrolo[2,1-f][1,2,4]triazin-7-yl}-N-[(3R,4S)-4-fluoro-1-(4,4,4-trifluoro-3-hydroxy-3-methylbutanoyl)pyrrolidin-3-yl]-2-methoxypyridine-3-carboxamide]",> 15 µM
7,"COc1ncc(-c2cc(CN3CCC(F)(F)CC3)c3c(N)ncnn23)cc1C(=O)N[C@@H]1CN(C(=O)CC(C)C)C[C@@H]1F [Example 1247, 5-{4-amino-5-[(4,4-difluoropiperidin-1-yl)methyl]pyrrolo[2,1-f][1,2,4]triazin-7-yl}-N-[(3R,4S)-4-fluoro-1-(3-methylbutanoyl)pyrrolidin-3-yl]-2-methoxypyridine-3-carboxamide]",> 15 µM
8,"COc1ncc(-c2cc(CN3CCC(F)(F)CC3)c3c(N)ncnn23)cc1C(=O)N[C@@H]1CN(C(=O)c2ccnc(C)c2)C[C@@H]1F [Example 1248, 5-{4-amino-5-[(4,4-difluoropiperidin-1-yl)methyl]pyrrolo[2,1-f][1,2,4]triazin-7-yl}-N-[(3R,4S)-4-fluoro-1-(2-methylpyridine-4-carbonyl)pyrrolidin-3-yl]-2-methoxypyridine-3-carboxamide]",> 15 µM
9,"COc1ncc(-c2cc(CN3CCC(F)(F)CC3)c3c(N)ncnn23)cc1C(=O)N[C@@H]1CN(C(=O)c2ccncc2F)C[C@@H]1F [Example 1250, 5-{4-amino-5-[(4,4-difluoropiperidin-1-yl)methyl]pyrrolo[2,1-f][1,2,4]triazin-7-yl}-N-[(3R,4S)-4-fluoro-1-(3-fluoropyridine-4-carbonyl)pyrrolidin-3-yl]-2-methoxypyridine-3-carboxamide]",> 15 µM
10,"COc1ncc(-c2cc(CN3CCC(F)(F)CC3)c3c(N)ncnn23)cc1C(=O)N[C@@H]1CN(C(=O)c2c(F)cc(F)cc2F)C[C@@H]1F [Example 1251, 5-{4-amino-5-[(4,4-difluoropiperidin-1-yl)methyl]pyrrolo[2,1-f][1,2,4]triazin-7-yl}-N-[(3R,4S)-4-fluoro-1-(2,4,6-trifluorobenzoyl)pyrrolidin-3-yl]-2-methoxypyridine-3-carboxamide]",> 15 µM
11,"COc1ncc(-c2cc(CN3CCC(F)(F)CC3)c3c(N)ncnn23)cc1C(=O)N[C@@H]1CN(C(=O)c2ccccn2)C[C@@H]1F [Example 1254, 5-{4-amino-5-[(4,4-difluoropiperidin-1-yl)methyl]pyrrolo[2,1-f][1,2,4]triazin-7-yl}-N-[(3R,4S)-4-fluoro-1-(pyridine-2-carbonyl)pyrrolidin-3-yl]-2-methoxypyridine-3-carboxamide]",> 15 µM
12,"COc1ncc(-c2cc(CN3CCC(F)(F)CC3)c3c(N)ncnn23)cc1C(=O)N[C@@H]1CN(C(=O)c2cnccc2C(F)(F)F)C[C@@H]1F [Example 1255, 5-{4-amino-5-[(4,4-difluoropiperidin-1-yl)methyl]pyrrolo[2,1-f][1,2,4]triazin-7-yl}-N-[(3R,4S)-4-fluoro-1-[4-(trifluoromethyl)pyridine-3-carbonyl]pyrrolidin-3-yl]-2-methoxypyridine-3-carboxamide]",> 15 µM
13,"COc1ncc(-c2cc(CN3CCC(F)(F)CC3)c3c(N)ncnn23)cc1C(=O)N[C@@H]1CN(C(=O)c2cscn2)C[C@@H]1F [Example 1256, 5-{4-amino-5-[(4,4-difluoropiperidin-1-yl)methyl]pyrrolo[2,1-f][1,2,4]triazin-7-yl}-N-[(3R,4S)-4-fluoro-1-(1,3-thiazole-4-carbonyl)pyrrolidin-3-yl]-2-methoxypyridine-3-carboxamide]",> 15 µM
14,"COc1ncc(-c2cc(CN3CCC(F)(F)CC3)c3c(N)ncnn23)cc1C(=O)N[C@@H]1CN(C(=O)CC(C)C(F)(F)F)C[C@@H]1F (stereo partly drawn) [Example 1258, 5-{4-amino-5-[(4,4-difluoropiperidin-1-yl)methyl]pyrrolo[2,1-f][1,2,4]triazin-7-yl}-N-[(3R,4S)-4-fluoro-1-(4,4,4-trifluoro-3-methylbutanoyl)pyrrolidin-3-yl]-2-methoxypyridine-3-carboxamide]",> 15 µM
15,"COc1ncc(-c2cc(CN3CCC(F)(F)CC3)c3c(N)ncnn23)cc1C(=O)N[C@@H]1CN(C(=O)c2cc(C)ncc2F)C[C@@H]1F [Example 1259, 5-{4-amino-5-[(4,4-difluoropiperidin-1-yl)methyl]pyrrolo[2,1-f][1,2,4]triazin-7-yl}-N-[(3R,4S)-4-fluoro-1-(5-fluoro-2-methylpyridine-4-carbonyl)pyrrolidin-3-yl]-2-methoxypyridine-3-carboxamide]",> 15 µM
16,"COc1ncc(-c2cc(CN3CCC(F)(F)CC3)c3c(N)ncnn23)cc1C(=O)N[C@@H]1CN(C(=O)C(C)(C)O)C[C@@H]1F [Example 1260, 5-{4-amino-5-[(4,4-difluoropiperidin-1-yl)methyl]pyrrolo[2,1-f][1,2,4]triazin-7-yl}-N-[(3R,4S)-4-fluoro-1-(2-hydroxy-2-methylpropanoyl)pyrrolidin-3-yl]-2-methoxypyridine-3-carboxamide]",> 15 µM
17,"COc1ncc(-c2cc(CN3CCC(F)(F)CC3)c3c(N)ncnn23)cc1C(=O)N[C@@H]1CN(C(=O)c2ccc(F)c(F)c2)C[C@@H]1F [Example 1262, 5-{4-amino-5-[(4,4-difluoropiperidin-1-yl)methyl]pyrrolo[2,1-f][1,2,4]triazin-7-yl}-N-[(3R,4S)-1-(3,4-difluorobenzoyl)-4-fluoropyrrolidin-3-yl]-2-methoxypyridine-3-carboxamide]",> 15 µM
18,"COc1ncc(-c2cc(CN3CCC(F)(F)CC3)c3c(N)ncnn23)cc1C(=O)N[C@@H]1CN(C(=O)c2ccc(F)cn2)C[C@@H]1F [Example 1264, 5-{4-amino-5-[(4,4-difluoropiperidin-1-yl)methyl]pyrrolo[2,1-f][1,2,4]triazin-7-yl}-N-[(3R,4S)-4-fluoro-1-(5-fluoropyridine-2-carbonyl)pyrrolidin-3-yl]-2-methoxypyridine-3-carboxamide]",> 15 µM
19,"COc1ncc(-c2cc(CN3CCC(F)(F)CC3)c3c(N)ncnn23)cc1C(=O)N[C@@H]1CN(C(=O)C(C)C(F)(F)F)C[C@@H]1F (stereo partly drawn) [Example 1266, 5-{4-amino-5-[(4,4-difluoropiperidin-1-yl)methyl]pyrrolo[2,1-f][1,2,4]triazin-7-yl}-N-[(3R,4S)-4-fluoro-1-(3,3,3-trifluoro-2-methylpropanoyl)pyrrolidin-3-yl]-2-methoxypyridine-3-carboxamide]",> 15 µM
20,"COc1ncc(-c2cc(CN3CCC(F)(F)CC3)c3c(N)ncnn23)cc1C(=O)N[C@@H]1CN(C(=O)c2cc(F)cc(F)c2)C[C@@H]1F [Example 1267, 5-{4-amino-5-[(4,4-difluoropiperidin-1-yl)methyl]pyrrolo[2,1-f][1,2,4]triazin-7-yl}-N-[(3R,4S)-1-(3,5-difluorobenzoyl)-4-fluoropyrrolidin-3-yl]-2-methoxypyridine-3-carboxamide]",> 15 µM
21,"COc1ncc(-c2cc(CN3CCC(F)(F)CC3)c3c(N)ncnn23)cc1C(=O)N[C@@H]1CN(C(=O)c2ccncc2Cl)C[C@@H]1F [Example 1268, 5-{4-amino-5-[(4,4-difluoropiperidin-1-yl)methyl]pyrrolo[2,1-f][1,2,4]triazin-7-yl}-N-[(3R,4S)-1-(3-chloropyridine-4-carbonyl)-4-fluoropyrrolidin-3-yl]-2-methoxypyridine-3-carboxamide]",> 15 µM
22,"COc1ncc(-c2cc(CN3CCC(F)(F)CC3)c3c(N)ncnn23)cc1C(=O)N[C@@H]1CN(C(=O)c2ncccc2F)C[C@@H]1F [Example 1269, 5-{4-amino-5-[(4,4-difluoropiperidin-1-yl)methyl]pyrrolo[2,1-f][1,2,4]triazin-7-yl}-N-[(3R,4S)-4-fluoro-1-(3-fluoropyridine-2-carbonyl)pyrrolidin-3-yl]-2-methoxypyridine-3-carboxamide]",> 15 µM
